Laboratory results: publication PMC11079024, “Identification of a family of species-selective complex I inhibitors as potential anthelmintics” (Nature Communications, 2024)

By UniProt entry, the sequences of proteins in these tests, tags left out. Where a name states a change or a piece, a line headed by the entry shows the natural chain unless it says otherwise. Residues count along the entry.
UniProt A4UAP3: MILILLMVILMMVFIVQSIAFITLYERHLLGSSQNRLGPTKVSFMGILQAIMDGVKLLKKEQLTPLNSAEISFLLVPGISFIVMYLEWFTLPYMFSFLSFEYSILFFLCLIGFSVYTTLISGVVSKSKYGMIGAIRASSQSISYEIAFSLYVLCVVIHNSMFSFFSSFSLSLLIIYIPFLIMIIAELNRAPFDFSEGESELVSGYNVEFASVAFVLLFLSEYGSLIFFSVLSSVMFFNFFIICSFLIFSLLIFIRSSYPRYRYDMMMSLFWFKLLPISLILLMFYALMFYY
UniProt P03887, whole entry: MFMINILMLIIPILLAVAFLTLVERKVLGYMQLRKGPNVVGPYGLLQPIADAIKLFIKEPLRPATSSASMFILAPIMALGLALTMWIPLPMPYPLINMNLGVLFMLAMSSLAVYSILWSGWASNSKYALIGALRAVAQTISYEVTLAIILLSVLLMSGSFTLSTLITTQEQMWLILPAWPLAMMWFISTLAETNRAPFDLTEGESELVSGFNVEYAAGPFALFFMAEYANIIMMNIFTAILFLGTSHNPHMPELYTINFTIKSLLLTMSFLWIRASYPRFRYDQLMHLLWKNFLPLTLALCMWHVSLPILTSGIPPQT
UniProt P17694, 34-463: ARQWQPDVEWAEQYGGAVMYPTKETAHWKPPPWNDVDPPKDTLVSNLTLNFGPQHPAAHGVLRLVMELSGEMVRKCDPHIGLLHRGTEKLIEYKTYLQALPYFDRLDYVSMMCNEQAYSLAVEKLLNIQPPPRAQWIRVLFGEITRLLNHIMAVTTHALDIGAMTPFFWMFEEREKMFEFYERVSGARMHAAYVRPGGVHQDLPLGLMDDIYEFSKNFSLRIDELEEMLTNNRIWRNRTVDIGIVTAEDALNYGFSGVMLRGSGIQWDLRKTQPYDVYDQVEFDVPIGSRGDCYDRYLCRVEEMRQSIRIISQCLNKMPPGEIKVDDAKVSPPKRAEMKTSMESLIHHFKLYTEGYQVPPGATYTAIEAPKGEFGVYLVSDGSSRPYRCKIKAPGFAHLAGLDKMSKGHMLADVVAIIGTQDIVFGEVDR
UniProt P42026, 38-216: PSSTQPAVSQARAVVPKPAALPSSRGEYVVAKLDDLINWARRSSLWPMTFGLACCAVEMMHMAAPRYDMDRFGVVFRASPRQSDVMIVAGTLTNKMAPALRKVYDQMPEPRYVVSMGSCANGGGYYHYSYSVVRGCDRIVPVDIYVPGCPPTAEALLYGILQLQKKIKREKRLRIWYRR

Legend:
P. pacificus complex I = P. pacificus complex I (Pristionchus pacificus, UniProt A0A454XZ18+A0A8R1Z3U8+A4UAP3); experiment: In vitro complex I activity assay, P. pacificus mitochondria; format: biochemical; conditions: single replicate
L1 wild-type C. elegans = conditions: […]; for KCN survival assay value relative to DMSO control, Mean: mean of replicates
C. briggsae complex I = target: T1, C. briggsae complex I (Caenorhabditis briggsae, UniProt A8X476+A8XFG2+Q8HEC4); experiment: In vitro complex I activity assay, C. briggsae mitochondria; format: biochemical; conditions: for in vitro complex I activity relative to solvent control: single replicate
T1 sequence (A8X476 31-482): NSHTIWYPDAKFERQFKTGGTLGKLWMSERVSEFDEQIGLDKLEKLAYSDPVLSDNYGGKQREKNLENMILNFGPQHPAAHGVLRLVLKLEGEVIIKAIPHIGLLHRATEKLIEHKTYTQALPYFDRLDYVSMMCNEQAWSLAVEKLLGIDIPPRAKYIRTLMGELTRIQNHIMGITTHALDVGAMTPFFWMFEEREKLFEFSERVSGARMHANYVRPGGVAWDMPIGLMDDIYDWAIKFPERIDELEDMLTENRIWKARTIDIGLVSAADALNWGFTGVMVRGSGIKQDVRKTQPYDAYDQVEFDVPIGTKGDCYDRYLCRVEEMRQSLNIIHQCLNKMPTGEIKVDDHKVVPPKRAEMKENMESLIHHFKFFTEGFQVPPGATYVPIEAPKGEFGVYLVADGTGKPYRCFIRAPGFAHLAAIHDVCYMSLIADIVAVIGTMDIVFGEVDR
T1 sequence (A8XFG2 17-199): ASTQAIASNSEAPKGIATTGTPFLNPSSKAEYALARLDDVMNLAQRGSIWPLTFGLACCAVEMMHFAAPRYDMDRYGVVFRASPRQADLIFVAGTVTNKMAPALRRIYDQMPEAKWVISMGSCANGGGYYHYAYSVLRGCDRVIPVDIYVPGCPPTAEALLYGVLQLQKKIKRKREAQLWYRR
T1 sequence (Q8HEC4 1-291): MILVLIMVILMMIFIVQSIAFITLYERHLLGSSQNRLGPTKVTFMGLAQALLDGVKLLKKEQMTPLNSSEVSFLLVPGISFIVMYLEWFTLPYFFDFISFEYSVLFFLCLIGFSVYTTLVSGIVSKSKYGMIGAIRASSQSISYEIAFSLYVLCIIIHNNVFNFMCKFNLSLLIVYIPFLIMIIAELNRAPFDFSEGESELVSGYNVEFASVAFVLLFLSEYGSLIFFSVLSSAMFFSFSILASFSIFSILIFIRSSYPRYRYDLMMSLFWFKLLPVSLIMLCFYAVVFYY

[1] = target: B. taurus (heart) complex I (Bos taurus, UniProt P03887+P17694+P42026); format: biochemical; conditions: B. taurus (heart) mitochondria, single replicate

SMILES: CC(C)Cc1ccc(C(C)c2nc3ccccc3n2C)cc1 (stereo not shown) [NPD8790]
- in vitro complex I activity relative to solvent control (P. pacificus complex I; 0.0001 µM): 88.002% and 87.975%
- in vitro complex I activity relative to solvent control (P. pacificus complex I; 0.0005 µM): 84.586% and 99.738%
- in vitro complex I activity relative to solvent control (P. pacificus complex I; 0.001 µM): 88.144% and 118.724% and 128.438%
- in vitro complex I activity relative to solvent control (P. pacificus complex I; 0.0025 µM): 91.851% and 121.800% and 114.985%
- in vitro complex I activity relative to solvent control (P. pacificus complex I; 0.005 µM): 88.090% and 129.528% and 134.644%
- in vitro complex I activity relative to solvent control (P. pacificus complex I; 0.013 µM): 75.261% and 114.147% and 126.153%
- in vitro complex I activity relative to solvent control (P. pacificus complex I; 0.025 µM): 93.189% and 109.711% and 118.899%
- in vitro complex I activity relative to solvent control (P. pacificus complex I; 0.313 µM): 84.029% and 90.800%
- in vitro complex I activity relative to solvent control (P. pacificus complex I; 0.625 µM): 90.077% and 71.350% and 65.156%
- in vitro complex I activity relative to solvent control (P. pacificus complex I; 1.5 µM): 77.861% and 69.113% and 57.365%
- in vitro complex I activity relative to solvent control (P. pacificus complex I; 3 µM): 55.217% and 59.547% and 32.622%
- in vitro complex I activity relative to solvent control (P. pacificus complex I; 7.5 µM): 35.946% and 21.621%
- in vitro complex I activity relative to solvent control (P. pacificus complex I; 15 µM): 20.646% and 38.121% and 5.573%
- in vitro complex I activity relative to solvent control (P. pacificus complex I; 37.5 µM): 7.989% and 34.972% and 5.846%
- in vitro complex I activity relative to solvent control (P. pacificus complex I; 75 µM): 8.992% and 21.695% and 3.235%
- Relative Motility (L1 wild-type C. elegans; 50 μM compound, worm motility 3 hours after removal of KCN, relative to DMSO controls, single biological replicate): 0.046
- KCN survival assay value relative to DMSO control, Mean (L1 wild-type C. elegans; dose 0.2 µM): 1.038
- KCN survival assay value relative to DMSO control, Mean (L1 wild-type C. elegans; dose 0.4 µM): 1.025
- KCN survival assay value relative to DMSO control, Mean (L1 wild-type C. elegans; dose 0.8 µM): 0.981
- KCN survival assay value relative to DMSO control, Mean (L1 wild-type C. elegans; dose 1.6 µM): 1.047
- KCN survival assay value relative to DMSO control, Mean (L1 wild-type C. elegans; dose 3.1 µM): 1.037
- KCN survival assay value relative to DMSO control, Mean (L1 wild-type C. elegans; dose 6.3 µM): 1.001
- KCN survival assay value relative to DMSO control, Mean (L1 wild-type C. elegans; dose 12.5 µM): 0.717
- KCN survival assay value relative to DMSO control, Mean (L1 wild-type C. elegans; dose 25 µM): 0.059
- KCN survival assay value relative to DMSO control, Mean (L1 wild-type C. elegans; dose 50 µM): 0.046
- KCN survival assay value relative to DMSO control, Mean (L1 wild-type C. elegans; dose 100 µM): 0.020
- in vitro complex I activity relative to solvent control (C. briggsae complex I; 0.0001 µM): 95.759% and 91.268%
- in vitro complex I activity relative to solvent control (C. briggsae complex I; 0.0005 µM): 94.520% and 94.808%
- in vitro complex I activity relative to solvent control (C. briggsae complex I; 0.001 µM): 101.737% and 104.812%
- in vitro complex I activity relative to solvent control (C. briggsae complex I; 0.0025 µM): 116.836% and 120.629%
- in vitro complex I activity relative to solvent control (C. briggsae complex I; 0.005 µM): 106.999% and 118.433% and 130.348%
- remaining activity at 0.013 µM (C. briggsae complex I; 0.013 µM, Mean, read-out: in vitro complex I activity relative to solvent control): 116%
- in vitro complex I activity relative to solvent control (C. briggsae complex I; 0.013 µM): 111.242% and 107.535% and 130.182%
- in vitro complex I activity relative to solvent control (C. briggsae complex I; 0.025 µM): 103.091% and 100.391% and 122.835%
- in vitro complex I activity relative to solvent control (C. briggsae complex I; 0.313 µM): 88.072% and 92.566%
- in vitro complex I activity relative to solvent control (C. briggsae complex I; 0.625 µM): 71.194% and 69.504%
- in vitro complex I activity relative to solvent control (C. briggsae complex I; 1.5 µM): 60.471% and 52.885%
- in vitro complex I activity relative to solvent control (C. briggsae complex I; 3 µM): 43.881% and 32.774%
- in vitro complex I activity relative to solvent control (C. briggsae complex I; 7.5 µM): 36.822% and 17.413% and 21.038%
- in vitro complex I activity relative to solvent control (C. briggsae complex I; 15 µM): 25.255% and 14.163% and 8.486%
- in vitro complex I activity relative to solvent control (C. briggsae complex I; 37.5 µM): 22.112% and 7.770% and 5.213%
- in vitro complex I activity relative to solvent control (C. briggsae complex I; 75 µM): 17.813% and 9.208% and 0.615%
- percent (%) in vitro complex I activity relative to solvent control ([1]; 0.125 µM): 111.398% and 110.709% and 87.488% and 92.420%
- percent (%) in vitro complex I activity relative to solvent control ([1]; 0.313 µM): 118.464% and 105.228% and 106.985%
- percent (%) in vitro complex I activity relative to solvent control ([1]; 0.625 µM): 106.273% and 97.568% and 112.424%
- percent (%) in vitro complex I activity relative to solvent control ([1]; 1.5 µM): 108.615% and 114.555% and 94.027% and 109.488%
- percent (%) in vitro complex I activity relative to solvent control ([1]; 3 µM): 105.743% and 114.475% and 92.946% and 103.733%
- percent (%) in vitro complex I activity relative to solvent control ([1]; 7.5 µM): 102.567% and 109.904% and 86.068% and 95.145%
- percent (%) in vitro complex I activity relative to solvent control ([1]; 15 µM): 82.876% and 90.607% and 69.676% and 74.384%
- percent (%) in vitro complex I activity relative to solvent control ([1]; 37.5 µM): 49.756% and 32.716% and 30.663%
- percent (%) in vitro complex I activity relative to solvent control ([1]; 75 µM): 6.165% and 16.790% and 16.865% and 14.475%
- in vitro complex I activity relative to solvent control ([1]; 0.06 µM): 101.538% and 112.181% and 91.251% and 105.094%
- in vitro complex I activity relative to solvent control ([1]; 0.13 µM): 111.398% and 110.709% and 87.488% and 92.420%
- in vitro complex I activity relative to solvent control ([1]; 0.313 µM): 118.464% and 105.228% and 106.985%
- in vitro complex I activity relative to solvent control ([1]; 0.625 µM): 106.273% and 97.568% and 112.424%

“And” between values parts separate entries of the source, which are not always exact repeats. Identical values can stand only once. Like-named read-outs stand apart in the source and are kept apart here.
